PubChem BioAssay (Tox21)
The list shows a part of the results, in another mix than the full data. Results filed as inconclusive are left out. The source holds several records for some structures; these can differ, active in one and inactive in another. Where a call stands in place of a potency, no number is given. The source made the active and inactive calls. The call rests on the fitted dose curve; in most records, active means well fitted inhibition curve with a large enough effect in the repeat runs; inconclusive means weak or mixed curves; inactive means no such curve, though single readings can be large or run the other way.

Experiment: qHTS assay to identify small molecule antagonists of the estrogen related receptor (ERR) signaling pathway from Tox21 library (AID 1224848); further: nearly all actives have a fitted effect of over 50% in size
Settings: ERR reporter cell line, luciferase antagonist mode, 18 h; series mostly up to 92.4 µM
Text: U.S. Tox21 Program National Center for Advancing Translational Sciences [NCATS] NIH Chemical Genomics Center [NCGC] U.S. Environmental Protection Agency [EPA] National Institutes of Environmental Health Sciences [NIEHS] National Toxicology Program [NTP] U.S. Food and Drug Administration [FDA] Tox21 Assay Overview: Estrogen related receptors (ERRs), the first orphan nuclear receptors discovered, play an important role in the control of cellular energy metabolism. ERRs are required for high-energy production in response to the environmental challenges. ERR-alpha was also identified as an adverse marker for breast cancer progression; ERR-alpha-positive tumors have a poor prognosis. To screen and to identify environmental compounds that perturb the ERR signaling pathways could provide valuable information for potential therapeutic or preventive measures in the treatment of metabolic disease. For identifying ERR antagonists, ERR cell line (provided by NTP) has been used to screen Tox21 10K library.
Tox21 Assay Protocol Summary: The ERR cells were dispensed at 2,000 cells/5 ul/well in 1536-well white plates using a Multidrop dispenser. After the assay plates were incubated at a 37 C/5% CO2 incubator for 6 hours, 23 nL of compounds dissolved in DMSO, positive and negative controls or DMSO only was transferred to the assay plate by a pin tool. The plates were incubated at 37 C for 18 hours. 4 ul/well of One-Glo reagent was added into the assay plates using a Flying Reagent Dispenser. After 30-minute incubation at room temperature, the luminescence intensity in the plates was measured using a ViewLux plate reader.
Potency means the concentration at half of the fitted maximal effect.

Row | SMILES | Potency
1 | O=[N+]([O-])OCC(CO[N+](=O)[O-])(CO[N+](=O)[O-])CO[N+](=O)[O-] | inactive
2 | Cc1c([N+](=O)[O-])cccc1[N+](=O)[O-] | inactive
3 | CP(=O)(O)OCCC[Si](O)(O)O | inactive
4 | N#CBr | inactive
5 | C/C1=C2N=C(/C=C3N=C(/C(C)=C4\[N-][C@@](C)([C@@H]5N=C1[C@](C)(CCC(=O)NC[C@@H](C)OP(=O)([O-])O[C@H]1[C@@H](O)[C@@H](n6cnc7cc(C)c(C)cc76)O[C@@H]1CO)[C@H]5CC(N)=O)[C@@](C)(CC(N)=O)[C@@H]4CCC(N)=O)[C@@](C)(CC(N)=O)[C@@H]\3CCC(N)=O)C(C)(C)[C@@H]/2CCC(N)=O.[C-]#N.[Co+3] | inactive
6 | O=[N+]([O-])c1cccc([N+](=O)[O-])c1 | inactive
7 | CC(C)N(CCO)C(C)C | inactive
8 | CCOP(=O)(CC)OCC | inactive
9 | OCCSCCO | inactive
10 | N=C(N)N[N+](=O)[O-] | inactive
11 | CC(C)OP(C)(=O)OC(C)C | active: 24.3 µM and inactive
12 | CCOP(=O)(CC)Oc1ccc([N+](=O)[O-])cc1 (stereo not drawn) | active: 7.5 µM
13 | Cc1ccc([N+](=O)[O-])cc1[N+](=O)[O-] | inactive
14 | COP(C)(=O)OC | inactive
15 | CCN(CC)CCCl | inactive
16 | COc1ccc([N+](=O)[O-])cc1[N+](=O)[O-] | inactive
17 | CN(C)CCCl | inactive
18 | Cc1ccc([N+](=O)[O-])c([N+](=O)[O-])c1 | inactive
